Experimental data published in patent US7939558B2, “Compounds having activity in increasing ion transport by mutant-CFTR and uses thereof” (The Regents of the University of California, priority 2004, dated 2011).

Chains of the proteins cited; added tags and fusions are not shown. A line that says so, or that is headed by a name, gives the form on record, which may keep a tag or linker.
UniProt P13569, with tags, fused parts or gaps DEL508-508: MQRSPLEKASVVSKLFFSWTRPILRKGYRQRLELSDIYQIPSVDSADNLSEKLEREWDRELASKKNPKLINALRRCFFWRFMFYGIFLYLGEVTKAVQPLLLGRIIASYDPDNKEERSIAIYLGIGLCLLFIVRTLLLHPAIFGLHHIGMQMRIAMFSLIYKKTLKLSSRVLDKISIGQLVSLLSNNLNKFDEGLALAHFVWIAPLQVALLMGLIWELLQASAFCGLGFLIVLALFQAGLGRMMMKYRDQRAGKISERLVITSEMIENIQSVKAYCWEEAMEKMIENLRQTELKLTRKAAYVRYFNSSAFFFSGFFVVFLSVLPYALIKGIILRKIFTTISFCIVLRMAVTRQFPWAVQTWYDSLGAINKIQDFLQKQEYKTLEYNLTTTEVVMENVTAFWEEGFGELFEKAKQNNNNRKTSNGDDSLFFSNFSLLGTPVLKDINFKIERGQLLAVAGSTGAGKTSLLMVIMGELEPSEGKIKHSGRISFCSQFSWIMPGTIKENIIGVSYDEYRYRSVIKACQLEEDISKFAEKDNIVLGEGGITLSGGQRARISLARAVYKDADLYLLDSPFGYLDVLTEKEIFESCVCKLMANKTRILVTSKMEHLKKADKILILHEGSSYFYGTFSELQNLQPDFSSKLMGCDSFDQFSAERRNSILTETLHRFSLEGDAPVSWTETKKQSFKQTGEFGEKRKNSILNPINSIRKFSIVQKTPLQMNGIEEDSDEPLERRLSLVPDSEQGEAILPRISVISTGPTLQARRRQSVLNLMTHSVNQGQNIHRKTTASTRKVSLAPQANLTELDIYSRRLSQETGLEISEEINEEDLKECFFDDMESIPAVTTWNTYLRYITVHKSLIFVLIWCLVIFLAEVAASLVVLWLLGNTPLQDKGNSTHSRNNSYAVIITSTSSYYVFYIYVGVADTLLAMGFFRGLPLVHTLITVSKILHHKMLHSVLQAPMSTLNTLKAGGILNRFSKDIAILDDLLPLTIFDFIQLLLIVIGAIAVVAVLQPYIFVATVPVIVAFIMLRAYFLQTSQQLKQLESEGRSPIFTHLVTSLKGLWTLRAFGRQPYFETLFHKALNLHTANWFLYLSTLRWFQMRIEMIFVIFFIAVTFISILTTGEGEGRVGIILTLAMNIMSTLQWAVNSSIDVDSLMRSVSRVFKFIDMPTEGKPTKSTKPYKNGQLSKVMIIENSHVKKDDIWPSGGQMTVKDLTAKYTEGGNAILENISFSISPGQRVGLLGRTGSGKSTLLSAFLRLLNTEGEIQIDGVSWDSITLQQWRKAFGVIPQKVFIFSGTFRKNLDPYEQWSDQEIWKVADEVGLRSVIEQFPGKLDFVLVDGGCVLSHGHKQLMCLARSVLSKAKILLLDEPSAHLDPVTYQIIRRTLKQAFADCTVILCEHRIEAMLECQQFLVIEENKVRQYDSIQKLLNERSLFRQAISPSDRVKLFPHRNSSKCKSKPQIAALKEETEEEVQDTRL

Biological target: ΔF508-CFTR (Homo sapiens, UniProt P13569, DEL508-508)
Test: Fluorescence (YFP-H148Q/I152L) I− influx assay of ΔF508-CFTR potentiator activity in FRT cells
Settings: 27° C. 24 h, forskolin 20 μM
[1] = phenylglycine containing compounds
[2] = sulfonamide containing compounds

Row | Ka [1] | Ka [2] [µM] | SMILES
1 | 0.40 µM | – | CN(C(=O)Cc1c[nH]c2ccccc12)C(C(=O)Nc1ccc2c(c1)OCCO2)c1ccccc1 (centres unmarked)
2 | Moderate Activity | – | Cc1ccc(C(C(=O)Nc2ccc(C(C)C)cc2)N(Cc2ccco2)C(=O)Cc2c[nH]c3ccccc23)cc1 (centres unmarked)
3 | – | 0.80 | COc1ccccc1CNC(=O)c1c[nH]c2ccc(S(=O)(=O)N3CCC4(CC3)OCCO4)cc2c1=O
4 | – | 0.88 | CCCCCNC(=O)c1c[nH]c2ccc(S(=O)(=O)N3CCC4(CC3)OCCO4)cc2c1=O
5 | – | 0.76 | CC(C)CCNC(=O)c1c[nH]c2ccc(S(=O)(=O)N3CCc4ccccc43)cc2c1=O
